Several values for one entry are separate records, joined by “and”; a condition that tells them apart may be missing. Equal entries are not always repeated. The list shows a part of the results, in another mix than the full data. Activity calls are given as the source filed them. Calls follow the shape of the dose curve; as a rule, active = well fitted inhibition curve with a large enough effect; inconclusive = small, poorly fitted or top-dose-only effect, or effect the other way; inactive = flat fitted curve, though single readings scatter.
Biological target: Thyroid hormone receptor beta (Homo sapiens) (UniProt P10828)
Test: qHTS for Inhibitors of the Interaction of Thyroid Hormone Receptor and Steroid Receptor Coregulator 2; also: nearly all actives have a fitted effect of over 50% in size
Conditions: TRbeta-SRC2 peptide binding, fluorescence polarization, receptor liganded with 1 µM T3
Excerpt: NIH Molecular Libraries Probe Production Network [MLPCN]
NIH Chemical Genomics Center [NCGC]
Assay Provider: R. Kip Guy, St. Jude Children's Research Hospital
Thyroid receptor (TR) regulates many homeostatic processes including basal metabolism, cardiovascular function, body weight, and lipid trafficking. TR modulators are potential therapeutics for obesity and hyperlipidemias but current thyroid analogs have undesirable side effects, particularly cardiac stimulation. To identify inhibitors that specifically prevent the interaction of TR with the steroid receptor coregulator 2 (SRC2), a fluorescence polarization assay was screened. This assay detects interaction of the ligand-binding domain of human TRb with a Texas Red labeled SRC2 peptide, corresponding to a 20 amino acid region of the nuclear receptor interaction domain (Arnold et al., 2006). Small molecule inhibitors that block the interaction of TR and SRC2 are detected by a decrease in fluorescence polarization.
Arnold, L. A.; Estebanez-Perpina, E.; Togashi, M.; Shelat, A.; Ocasio, C. A.; McReynolds, A. C.; Nguyen, P.; Baxter, J. D.; Fletterick, R. J.; Webb, P.; Guy, R. K. A high-throughput screening method to identify small molecule inhibitors of thyroid hormone receptor coactivator binding. Sci STKE 2006, p 13.
NCGC Assay Protocol Summary:
For screening, 5 uL/well 0.6 uM TRb and 20 nM SRC2 Texas Red in protein buffer (20mM Tris hydrochloride, 100mM NaCl, 10% glycerol, 1mM EDTA, 0.01% NP-40, 1mM DTT, 1uM T3 and 5% DMSO) was dispensed into black solid 1536-well plates (Grenier) using a solenoid-based dispenser. Following transfer of 23 nL compound or DMSO vehicle by a pin tool, the plates were centrifuged 15 s at 1000 RPM and incubated 5 hr at ambient temperature. […] Data were normalized to unbound (all components except TRb) and bound SRC2 Texas Red controls. In this assay, we provide % activity data for each concentration as well as potencies for the active compounds.
Keywords: NIH Roadmap, MLPCN, MLI, MLSMR, qHTS, NCGC, qHTS, thyroid hormone receptor, steroid receptor coactivator, fluorescence polarization

Protein sequences, listed by entry. Tags and fused reporters are not part of them. Lines headed by an entry give the natural chain unless they say otherwise; changes in a name come on top.
UniProt P10828: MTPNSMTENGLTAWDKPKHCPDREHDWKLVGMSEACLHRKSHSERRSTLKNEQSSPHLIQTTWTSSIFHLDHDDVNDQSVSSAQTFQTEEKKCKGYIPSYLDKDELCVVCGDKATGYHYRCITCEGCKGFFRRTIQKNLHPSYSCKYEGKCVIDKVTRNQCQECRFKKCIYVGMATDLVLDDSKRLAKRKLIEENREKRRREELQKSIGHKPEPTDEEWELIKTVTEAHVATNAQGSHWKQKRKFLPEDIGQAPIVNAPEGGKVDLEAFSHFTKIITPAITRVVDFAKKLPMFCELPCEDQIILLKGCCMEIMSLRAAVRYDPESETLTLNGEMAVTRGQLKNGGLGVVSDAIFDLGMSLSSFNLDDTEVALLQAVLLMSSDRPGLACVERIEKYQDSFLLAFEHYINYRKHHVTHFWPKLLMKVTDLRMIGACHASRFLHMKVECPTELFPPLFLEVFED

[1] = at 106 µM (top of the series) unless noted

## O=P1(Nc2ncccn2)COc2ccccc2OC1
[1]
  activity change, negative = inhibition: inactive: -17.8%

## Nc1cccc([As](=O)(O)c2ccccc2)c1
[1]
  activity change, negative = inhibition: inactive: -1.05%

## O=[As](O)(c1cccs1)c1cccs1
[1]
  activity change, negative = inhibition: inactive: -1.36%

## O=P1(Nc2ccc(Br)cn2)COc2ccccc2OC1
[1]
  activity change, negative = inhibition: inactive: 15.5%

## Cc1nn(-c2ccccc2)c2c1P(=O)(N1CCOCC1)N(C)C(c1ccccc1)=N2 (stereo unspecified)
[1]
  activity change, negative = inhibition: inactive: 0.181%

## CC1CCC(C(C)C)C(OP(=O)(Nc2ccccn2)c2ccccc2)C1 (stereo unspecified)
[1]
  activity change, negative = inhibition: inactive: 4.88%

## CN(C)C1(CNC(=O)c2ccc(S(C)(=O)=O)cc2)CCCCC1
[1]
  activity change, negative = inhibition: inactive: -0.284%

## CC(C)/C=N\N=C(\N)N[N+](=O)[O-]
[1]
  activity change, negative = inhibition: inactive: 2.59%

## O=[As](O)(c1ccccc1Br)c1ccccc1Br
[1]
  activity change, negative = inhibition: inactive: 1.66%

## O=P1(Nc2ccccn2)COc2ccccc2OC1
[1]
  activity change, negative = inhibition: inactive: -5.73%

## CCOP(=O)(Nc1ccc(C)cn1)OCC
[1]
  activity change, negative = inhibition: inactive: 4.17%

## Clc1n[nH]nc1-c1nn[nH][15n]1
[1]
  activity change, negative = inhibition: inactive: -3.57%

## CC(C)(C)C(=O)NC(Sc1ncccn1)C(Cl)(Cl)Cl (stereo unspecified)
[1]
  activity change, negative = inhibition: inactive: 2.26%

## COP(=S)(Cl)OC
[1]
  activity change, negative = inhibition: inactive: -1.75% [at 201 µM]

## Nc1cccc2c([As](=O)(O)O)cccc12
[1]
  activity change, negative = inhibition: inactive: -13%

## Cc1ccc(NCCc2c([N+](=O)[O-])cc([N+](=O)[O-])cc2[N+](=O)[O-])cc1
[1]
  activity change, negative = inhibition: inactive: 6.26%

## CCCOP(=S)(Nc1nc(N)cc(=O)[nH]1)OCCC
[1]
  activity change, negative = inhibition: inactive: -3.06%

## COc1cc(C2NCCC3(OCCO3)C2(C)C)cc(OC)c1OC (stereo unspecified)
[1]
  activity change, negative = inhibition: inactive: 0.686%

## CCOP(=O)(Nc1cccc2ccccc12)OCC
[1]
  activity change, negative = inhibition: inactive: -8.37%

## O=C(OC1CN2CCC1CC2)c1ccc(Cl)cc1 (stereo unspecified)
[1]
  activity change, negative = inhibition: inactive: 1.03%

## CN(C(=O)Cc1ccc(Cl)c(Cl)c1)[C@@H]1CC[C@]2(CCCO2)C[C@H]1N1CCCC1
[1]
  activity change, negative = inhibition: inactive: 4.76% and inactive: -4.19%

## O=[As](O)(O)c1cccnc1
[1]
  activity change, negative = inhibition: inactive: -4.35%

## COc1cc(C(=O)NCC2(N3CCOCC3)CCCCC2)cc(Cl)c1OC(C)C
[1]
  activity change, negative = inhibition: inactive: 3.42%

## O=[As](O)(c1cccc(O)c1)c1cccc(O)c1
[1]
  activity change, negative = inhibition: inactive: 6.06%

## ClP(Cl)c1ccccc1
[1]
  activity change, negative = inhibition: inactive: -2.71% [at 201 µM]

## NC(=O)Nc1ccc([As](=O)(O)O)cc1
At 53 µM (top of the series)
  activity change, negative = inhibition: inactive: -0.331%
At 106 µM (top of the series)
  activity change, negative = inhibition: inactive: 7.79% and inactive: 5.02%

## O=[N+]([O-])CC(O)c1ccc([N+](=O)[O-])cc1 (stereo unspecified)
[1]
  activity change, negative = inhibition: inactive: 7.6%

## CN(C(=O)Cc1ccccc1)[C@@H]1CC[C@]2(CCCO2)C[C@H]1N1CCCC1
[1]
  activity change, negative = inhibition: inactive: 3.61% and inactive: -9.51%

## CCOP1(=S)c2c(C)nn(CCC#N)c2N=C(c2ccc(F)cc2)N1C (stereo unspecified)
[1]
  activity change, negative = inhibition: inactive: 9.34%

## O=[N+]([O-])c1ccc2c(c1)nnn2O
[1]
  activity change, negative = inhibition: inactive: 0.524%

## CCOP1(=S)c2c(C)nn(CCC#N)c2N=C(c2ccccc2F)N1C (stereo unspecified)
[1]
  activity change, negative = inhibition: inactive: -0.125%

## O=P(Nc1nccs1)(Oc1ccccc1)Oc1ccccc1
[1]
  activity change, negative = inhibition: inactive: -1.03%

## O=P(Nc1nccs1)(c1ccccc1)c1nc2ccccc2s1 (stereo unspecified)
[1]
  activity change, negative = inhibition: inactive: 1.17%

## CS(=O)(=O)c1cc([N+](=O)[O-])c2no[n+]([O-])c2c1
[1]
  activity change, negative = inhibition: inactive: 0.54%

## Nc1ccccc1[As](=O)(O)c1ccccc1
[1]
  activity change, negative = inhibition: inactive: 0.0225%

## O=C(O)COc1ccc([As](=O)(O)O)cc1[N+](=O)[O-]
[1]
  activity change, negative = inhibition: inactive: -1.15%

## ClCCSc1nnc(-c2cccnc2)o1
[1]
  activity change, negative = inhibition: inactive: -10.4%

## CC(C)c1ccc(OP(=O)(Nc2ccccn2)Oc2ccccc2F)cc1 (stereo unspecified)
[1]
  activity change, negative = inhibition: inactive: -2.51%

## CC(C)NC(=O)NP(=O)(Oc1ccccc1)Oc1ccccc1
[1]
  activity change, negative = inhibition: inactive: 0.661%

## CCN(CC)C(=S)SC(NC=O)C(Cl)(Cl)Cl (stereo unspecified)
[1]
  activity change, negative = inhibition: inactive: 0.74%

## O=[N+]([O-])c1cc([N+](=O)[O-])c(-c2ccn[nH]2)s1
[1]
  activity change, negative = inhibition: inactive: 5.1%

## C[As](=O)(O)c1cccc(C(=O)O)c1
[1]
  activity change, negative = inhibition: inactive: -6.75%

## O=[As](O)(c1ccc(O)cc1)c1ccccc1O
[1]
  activity change, negative = inhibition: inactive: 13.9%

## Cc1ccc(OP(=O)(Nc2ccc([N+](=O)[O-])cn2)Oc2ccc(C)cc2)cc1
[1]
  activity change, negative = inhibition: inactive: -3.59%

## Cc1ccc2nc3c(c(C)c2c1)CC(C(Cl)Cl)S3 (stereo unspecified)
[1]
  activity change, negative = inhibition: inactive: 0.299%

## COc1ccc(N/C(=N/P(=O)(N2CCOCC2)N2CCOCC2)N2CCOCC2)cc1
[1]
  activity change, negative = inhibition: inactive: -7.92%

## Cc1c2c(nc3ccccc13)SC(C(Cl)Cl)C2 (stereo unspecified)
[1]
  activity change, negative = inhibition: inactive: -15%

## O=C(OC1CN2CCC1CC2)C12CC3CC(CC(C3)C1)C2 (stereo unspecified)
[1]
  activity change, negative = inhibition: inactive: 1.93%

## Cc1cc(=O)[nH]c(N[N+](=O)[O-])n1
[1]
  activity change, negative = inhibition: inactive: 2.16%

## COc1ccc2nc(NP(=O)(c3ccccc3)c3ccccc3)sc2c1
[1]
  activity change, negative = inhibition: inactive: -6.58%

## COc1cc(I)ccc1[As](=O)(O)O
[1]
  activity change, negative = inhibition: inactive: -0.929%

## CCOC(=O)c1ccc(NC(=O)C(C)(CCl)SC)cc1 (stereo unspecified)
[1]
  activity change, negative = inhibition: inactive: -0.327%

## CCC(C)N(CC(C)C)C(=S)SC(NC(C)=O)C(Cl)(Cl)Cl (stereo unspecified)
[1]
  activity change, negative = inhibition: inactive: -17.4%

## COP1(=S)c2c(C)nn(CCC#N)c2N=C(c2ccc(F)cc2)N1C (stereo unspecified)
[1]
  activity change, negative = inhibition: inactive: -17%

## CCCCO[P+](=O)OCCCC
[1]
  activity change, negative = inhibition: inactive: 4.25% [at 201 µM]

## CCOC(=O)Nc1cccc([As](=O)(O)O)c1
[1]
  activity change, negative = inhibition: inactive: -5.31%

## O=P(Nc1ccccn1)(c1cccc2ccccc12)c1cccc2ccccc12
[1]
  activity change, negative = inhibition: inactive: 3.95%

## Cc1cc(SC(NC=O)C(Cl)(Cl)Cl)ncn1 (stereo unspecified)
[1]
  activity change, negative = inhibition: inactive: -2.46%

## CN(N=O)C(=N)N[N+](=O)[O-]
[1]
  activity change, negative = inhibition: inactive: 5.87%

## O=[N+]([O-])c1ccc(Nc2ccc(Oc3ccc([N+](=O)[O-])cc3[N+](=O)[O-])cc2)c([N+](=O)[O-])c1
[1]
  activity change, negative = inhibition: inactive: 1.39%

## CCOC(=O)Nc1ccc([As](=O)(O)O)c(O)c1
[1]
  activity change, negative = inhibition: inactive: -5.27%

## Cc1cc(SC(NC(=O)c2ccccc2)C(Cl)(Cl)Cl)nc(C(C)C)n1 (stereo unspecified)
[1]
  activity change, negative = inhibition: inactive: 7.59%

## O=[N+]([O-])c1ncn(CCn2ncnc2[N+](=O)[O-])n1
[1]
  activity change, negative = inhibition: inactive: 6.26%

## CC(C)(C)C(=O)NC(Sc1ccncn1)C(Cl)(Cl)Cl (stereo unspecified)
[1]
  activity change, negative = inhibition: inactive: -7.27%

## O=C(O)CNc1ccc([As](=O)(O)O)cc1
[1]
  activity change, negative = inhibition: inactive: -4.7%

Source: PubChem BioAssay AID1469 (National Center for Advancing Translational Sciences (NCATS), 2008)
